Data taken from PubChem BioAssay (NCI).
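1) Cells in 96-well plates. 2) Compound, 48 h, 5 concentrations. 3) Linear interpolation between surrounding doses. 4) Unreached endpoint = highest concentration. GI50 is the concentration that inhibits growth by half. TGI is the concentration that stops growth completely.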

Legend:
Assay in all cases: DTP human tumour cell line panel, 48 h; in the data active = GI50 below about 0.43 µM; inactive = the rest
NCI/ADR-RES ovarian = system: NCI/ADR-RES ovarian
HS 578T breast = system: HS 578T breast
NCI-H23 lung = system: NCI-H23 lung
UO-31 renal = system: UO-31 renal
SW-620 colon = system: SW-620 colon
M14 melanoma = system: M14 melanoma
786-0 renal = system: 786-0 renal
NCI-H460 lung = system: NCI-H460 lung
U251 CNS = system: U251 CNS
HL-60(TB) leukemia = system: HL-60(TB) leukemia
HOP-92 NSCLC = system: HOP-92 NSCLC
NCI-H322M lung = system: NCI-H322M lung
DU-145 prostate = system: DU-145 prostate
SN12C renal = system: SN12C renal
MALME-3M melanoma = system: MALME-3M melanoma
EKVX NSCLC = system: EKVX NSCLC
HCT-15 colon = system: HCT-15 colon
SK-MEL-5 melanoma = system: SK-MEL-5 melanoma
UACC-257 melanoma = system: UACC-257 melanoma
SR leukemia = system: SR leukemia
COLO 205 colon = system: COLO 205 colon
HCC-2998 colon = system: HCC-2998 colon
KM12 colon = system: KM12 colon
OVCAR-4 ovarian = system: OVCAR-4 ovarian
MOLT-4 leukemia = system: MOLT-4 leukemia
MDA-MB-231 breast = system: MDA-MB-231 breast
SK-MEL-28 melanoma = system: SK-MEL-28 melanoma
OVCAR-3 ovarian = system: OVCAR-3 ovarian
OVCAR-8 ovarian = system: OVCAR-8 ovarian
SK-OV-3 ovarian = system: SK-OV-3 ovarian
UACC-62 melanoma = system: UACC-62 melanoma
SK-MEL-2 melanoma = system: SK-MEL-2 melanoma
K-562 leukemia = system: K-562 leukemia
HOP-62 NSCLC = system: HOP-62 NSCLC
SF-295 CNS = system: SF-295 CNS
OVCAR-5 ovarian = system: OVCAR-5 ovarian
T-47D breast = system: T-47D breast
HT29 colon = system: HT29 colon
TK-10 renal = system: TK-10 renal
LOX IMVI melanoma = system: LOX IMVI melanoma
NCI-H522 lung = system: NCI-H522 lung
MDA-N = system: MDA-N
IGROV1 ovarian = system: IGROV1 ovarian
A549 NSCLC = system: A549 NSCLC
RXF 393 renal = system: RXF 393 renal
A498 renal = system: A498 renal
SNB-75 CNS = system: SNB-75 CNS
CAKI-1 renal = system: CAKI-1 renal
PC-3 prostate = system: PC-3 prostate
SF-539 CNS = system: SF-539 CNS
MCF7 breast = system: MCF7 breast
RPMI-8226 leukemia = system: RPMI-8226 leukemia
NCI-H226 lung = system: NCI-H226 lung
BT-549 breast = system: BT-549 breast
MDA-MB-435 = system: MDA-MB-435
HCT-116 colon = system: HCT-116 colon
SNB-19 CNS = system: SNB-19 CNS
CCRF-CEM leukemia = system: CCRF-CEM leukemia
SF-268 CNS = system: SF-268 CNS
ACHN renal = system: ACHN renal

CC(=O)Nc1ccc([As](=O)(O)O)cc1
> 100 µM: TGI (NCI/ADR-RES ovarian) | TGI (HS 578T breast) | TGI (NCI-H23 lung) | TGI (UO-31 renal) | TGI (SW-620 colon) | TGI (M14 melanoma) | TGI (786-0 renal) | TGI (NCI-H460 lung) | TGI (U251 CNS) | TGI (HL-60(TB) leukemia) | TGI (HOP-92 NSCLC) | TGI (NCI-H322M lung) | TGI (DU-145 prostate) | TGI (SN12C renal) | TGI (MALME-3M melanoma) | TGI (EKVX NSCLC) | TGI (HCT-15 colon) | TGI (SK-MEL-5 melanoma) | TGI (UACC-257 melanoma) | TGI (SR leukemia) | TGI (COLO 205 colon) | TGI (HCC-2998 colon) | TGI (KM12 colon) | TGI (OVCAR-4 ovarian) | TGI (MOLT-4 leukemia) | TGI (MDA-MB-231 breast) | TGI (SK-MEL-28 melanoma) | TGI (OVCAR-3 ovarian) | TGI (OVCAR-8 ovarian) | TGI (SK-OV-3 ovarian) | TGI (UACC-62 melanoma) | TGI (SK-MEL-2 melanoma) | TGI (K-562 leukemia) | TGI (HOP-62 NSCLC) | TGI (SF-295 CNS) | TGI (OVCAR-5 ovarian) | TGI (T-47D breast) | TGI (HT29 colon) | TGI (TK-10 renal) | TGI (LOX IMVI melanoma) | TGI (NCI-H522 lung) | TGI (MDA-N) | TGI (IGROV1 ovarian) | TGI (A549 NSCLC) | TGI (RXF 393 renal) | TGI (A498 renal) | TGI (SNB-75 CNS) | TGI (CAKI-1 renal) | TGI (PC-3 prostate) | TGI (SF-539 CNS) | TGI (MCF7 breast) | TGI (RPMI-8226 leukemia) | TGI (NCI-H226 lung) | TGI (BT-549 breast) | TGI (MDA-MB-435) | TGI (HCT-116 colon) | TGI (SNB-19 CNS) | TGI (CCRF-CEM leukemia) | TGI (SF-268 CNS) | TGI (ACHN renal)
inactive: GI50 (NCI/ADR-RES ovarian) > 100 µM | GI50 (HS 578T breast) > 100 µM | GI50 (NCI-H23 lung) > 100 µM | GI50 (UO-31 renal) > 100 µM | GI50 (SW-620 colon) > 100 µM | GI50 (M14 melanoma) > 100 µM | GI50 (786-0 renal) > 100 µM | GI50 (NCI-H460 lung) > 100 µM | GI50 (U251 CNS) > 100 µM | GI50 (HL-60(TB) leukemia) > 100 µM | GI50 (HOP-92 NSCLC) > 100 µM | GI50 (NCI-H322M lung) > 100 µM | GI50 (DU-145 prostate) > 100 µM | GI50 (SN12C renal) > 100 µM | GI50 (MALME-3M melanoma) > 100 µM | GI50 (EKVX NSCLC) > 100 µM | GI50 (HCT-15 colon) > 100 µM | GI50 (SK-MEL-5 melanoma) > 100 µM | GI50 (UACC-257 melanoma) > 100 µM | GI50 (SR leukemia) > 100 µM | GI50 (COLO 205 colon) > 100 µM | GI50 (HCC-2998 colon) > 100 µM | GI50 (KM12 colon) > 100 µM | GI50 (OVCAR-4 ovarian) > 100 µM | GI50 (MOLT-4 leukemia) > 100 µM | GI50 (MDA-MB-231 breast) > 100 µM | GI50 (SK-MEL-28 melanoma) > 100 µM | GI50 (OVCAR-3 ovarian) > 100 µM | GI50 (OVCAR-8 ovarian) > 100 µM | GI50 (SK-OV-3 ovarian) > 100 µM | GI50 (UACC-62 melanoma) > 100 µM | GI50 (SK-MEL-2 melanoma) > 100 µM | GI50 (K-562 leukemia) > 100 µM | GI50 (HOP-62 NSCLC) > 100 µM | GI50 (SF-295 CNS) > 100 µM | GI50 (OVCAR-5 ovarian) > 100 µM | GI50 (T-47D breast) > 100 µM | GI50 (HT29 colon) > 100 µM | GI50 (TK-10 renal) > 100 µM | GI50 (LOX IMVI melanoma) > 100 µM | GI50 (NCI-H522 lung) > 100 µM | GI50 (MDA-N) > 100 µM | GI50 (IGROV1 ovarian) > 100 µM | GI50 (A549 NSCLC) > 100 µM | GI50 (RXF 393 renal) > 100 µM | GI50 (A498 renal) > 100 µM | GI50 (SNB-75 CNS) > 100 µM | GI50 (CAKI-1 renal) > 100 µM | GI50 (PC-3 prostate) > 100 µM | GI50 (SF-539 CNS) > 100 µM | GI50 (MCF7 breast) > 100 µM | GI50 (RPMI-8226 leukemia) > 100 µM | GI50 (NCI-H226 lung) > 100 µM | GI50 (BT-549 breast) > 100 µM | GI50 (MDA-MB-435) > 100 µM | GI50 (HCT-116 colon) > 100 µM | GI50 (SNB-19 CNS) > 100 µM | GI50 (CCRF-CEM leukemia) > 100 µM | GI50 (SF-268 CNS) > 100 µM | GI50 (ACHN renal) > 100 µM
